Data set [1] deals with HFD-induced T2D mice. Kind of data set: Metabolic phenotyping (fasting glucose, GTT, ITT) in HFD-fed T2D mice. The format is in vivo. The note with it: HFD-fed T2D C57 mice, 5 mg/kg/day p.o. The method, then: All compounds were dissolved in Kolliphor® EL (Sigma, #C5135). Either vehicle (Kolliphor® EL), SN-401 (DCPIB, 5 mg/kg of body weight/day, Tocris, D1540), SN-403, SN-406, SN-407 or SN071 were administered i.p. as indicated using 1 cc syringe/26G×½ inch needle daily for 4-10 days, and in one experiment, SN-401 was administered daily for 8 weeks. SN-401, formulated as above, was also administered by oral gavage at 5 mg/kg/day for 5 days using a 20G×1.5 inch reusable metal gavage needle.
Mice were fasted for 6 h prior to glucose tolerance tests (GTT). Baseline glucose levels at 0 min timepoint (fasting glucose, FG) were measured from blood sample collected from tail snipping using glucometer (Bayer Healthcare LLC). Either 1 g or 0.75 g D-Glucose/kg body weight were injected (i.p.) for lean or HFD mice, respectively and glucose levels were measured at 7, 15, 30, 60, 90 and 120 min timepoints after injection. […] Similar to GTTs, the baseline blood glucose levels were measured at 0 min timepoint and 15, 30, 60, 90 and 120 min timepoints post-injection (i.p.) of insulin (HumulinR, 1 U/kg body weight for lean mice or 1.25 U/kg body weight for HFD mice). […] The collected plasma was then measured for insulin content by using Ultra-Sensitive Mouse Insulin ELISA Kit (Crystal Chem, #90080). All mice and treatment groups were assessed blindly while performing experiments.

Data set [2] is described as follows: In vivo pharmacokinetics in mice. How it is done: Male C57/BL6 mice were used in the study and assessed for a single dose (5 mg/kg) administration. The compounds were prepared in Cremaphor for i.p. and p.o dose routes and in 5% ethanol, 10% Tween-20 and water mix for i.v. route at a final concentration of 1 mg/ml. […] The blood samples were collected in tubes with K2 EDTA anticoagulant and further processed to collect plasma by centrifugation at 3500 rpm at 5° C. for 10 min Samples were further processed in LC/MS to determine the concentration of the compounds. Non-compartmental analysis was performed to obtain the PK parameters using the PKPlus software package (Simulation Plus). The area under the plasma concentration-time curve (AUCint) is calculated from time 0 to infinity where the Cmax is the maximal concentration achieved in plasma and t112 is the terminal elimination half-life. Oral bioavailability was calculated as AUCorailAUC1v*100.

Data set [3] can be described thus: Caco-2 permeability assay. In kind it is in vitro ADME. The note with it: human, read-out: Caco-2 efflux ratio B-A/A-B. The method, then: In vitro ADMET studies were performed at Charles River Laboratory as outlined below. For the Caco-2 permeability assay, the cells were cultured (DMEM, 10% FBS, 1% L-Glutamax and 1% PenStrep) for 21 days. HBSS was used as the transport buffer and the TEER measurements were taken before the start of the assay. Compounds were added apical side to determine apical to basolateral transport (A-B) and basal side to determine basolateral to apical transport (B-A). Samples (10 μL) were collected at time 0 and 2 h and diluted (5×) with transport buffer. After the quenching reaction, the samples were further diluted in MilliQ water for bioanalysis. […] The analyte levels (peak area ratios) were measured on apical (A) and basolateral (B) sides at To and T2h-A-B and B-A fluxes were calculated averaging 3 individual measurements. Apparent permeability (Papp, cm/sec) was calculated as dQ (flux)/(dt*area*concentration). The efflux ratio was calculated by Papp(B-A)/Papp(B-A). […] The supernatant was diluted in water and further analyzed in LC/MS autosampler. Half-life (T1/2) was calculated by the formula 0.692/slope where slope is ln(% remaining relative to Tzero vs time). Intrinsic clearance was calculated using the (CLn1)=T112*1/initial concentration*mg prep/g liver*g liver/kg body weight. […]

In data set [4] the test system is ICl,SWELL. The note with it: guinea-pig atrial cells, channel inhibitory concentrations ~5-10 μM; cited from earlier work.

Consider one molecule from US20220242812A1, “SWELL1-LRRC8 COMPLEX MODULATORS” (Washington University, priority 2019, published 2022).

For the molecule `CCCCC1(C2CCCC2)Cc2cc(OCCCC(=O)O)c(Cl)c(Cl)c2C1=O` (centres unmarked) [SN-401, 4-((2-butyl-6,7-dichloro-2-cyclopentyl-1-oxo-2,3-dihydro-1H-inden-5-yl)oxy)butanoic acid], the “In vivo therapeutic efficacy after oral gavage” value in data set [1] was “fully retains”. The “Plasma concentrations relative to ICl,SWELL inhibitory concentrations” value in data set [2] (5 mg/kg i.p. dosing) is reported as “transiently approach”; in data set [2] (5 mg/kg p.o. dosing) it was “remain well below”. Also, the efflux ratio at 2 h in data set [3] came to 1.44. In addition, the “Selectivity for ICl,SWELL” value in data set [4] is recorded as “selective”.
